Chains of the proteins cited; added tags and fusions are not shown. Lines headed by an entry give the natural chain unless they say otherwise; changes in a name come on top.
UniProt P0A3G2, whole entry, looked up: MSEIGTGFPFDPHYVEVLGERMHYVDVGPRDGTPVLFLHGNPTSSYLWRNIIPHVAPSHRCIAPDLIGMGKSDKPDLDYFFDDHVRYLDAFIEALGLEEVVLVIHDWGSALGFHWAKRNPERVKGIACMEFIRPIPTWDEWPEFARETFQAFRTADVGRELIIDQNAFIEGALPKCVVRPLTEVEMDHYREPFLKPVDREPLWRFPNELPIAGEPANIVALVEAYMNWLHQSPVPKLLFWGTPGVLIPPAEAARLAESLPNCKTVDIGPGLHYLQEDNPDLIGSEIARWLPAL
UniProt D4Z2G1: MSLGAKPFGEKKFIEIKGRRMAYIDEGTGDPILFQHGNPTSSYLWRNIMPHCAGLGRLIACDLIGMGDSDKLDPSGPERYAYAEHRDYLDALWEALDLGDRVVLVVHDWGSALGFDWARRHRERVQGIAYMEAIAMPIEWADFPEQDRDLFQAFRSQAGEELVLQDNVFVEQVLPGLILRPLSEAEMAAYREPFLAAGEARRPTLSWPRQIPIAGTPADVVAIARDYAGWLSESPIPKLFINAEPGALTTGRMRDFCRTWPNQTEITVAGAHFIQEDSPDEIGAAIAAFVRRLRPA
UniProt P59337: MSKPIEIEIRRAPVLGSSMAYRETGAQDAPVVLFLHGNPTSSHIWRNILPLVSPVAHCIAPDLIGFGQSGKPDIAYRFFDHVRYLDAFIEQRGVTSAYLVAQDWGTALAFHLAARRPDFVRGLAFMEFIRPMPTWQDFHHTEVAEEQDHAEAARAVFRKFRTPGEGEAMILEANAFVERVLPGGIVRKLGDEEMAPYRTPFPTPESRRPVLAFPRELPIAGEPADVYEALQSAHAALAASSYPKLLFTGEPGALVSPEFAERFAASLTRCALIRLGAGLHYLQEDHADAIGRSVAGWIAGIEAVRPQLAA
UniProt P22643: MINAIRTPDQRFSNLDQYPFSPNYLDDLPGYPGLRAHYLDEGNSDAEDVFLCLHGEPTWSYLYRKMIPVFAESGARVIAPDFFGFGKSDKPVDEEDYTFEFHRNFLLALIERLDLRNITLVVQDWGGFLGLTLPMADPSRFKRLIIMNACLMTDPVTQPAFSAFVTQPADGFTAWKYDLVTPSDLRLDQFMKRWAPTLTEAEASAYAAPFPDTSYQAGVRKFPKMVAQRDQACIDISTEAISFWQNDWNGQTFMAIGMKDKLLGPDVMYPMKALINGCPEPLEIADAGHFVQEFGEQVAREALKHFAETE

According to patent publication US7632666B2 (priority 2005, dated 2009):

How the values were obtained:
[1] = target: haloalkane dehalogenase DhaA (Rhodococcus rhodochrous, UniProt P0A3G2); assay: Chiral recognition (E-value), hydrolytic dehalogenation of racemic substrates; type: biochemical, Rhodococcus rhodochrous NCIMB 13064; conditions: racemic substrate; n.d. = not detected (activity < 0.2 nM · s^−1 · mg^−1 of enzyme)
[2] = target: haloalkane dehalogenase LinB (Sphingobium indicum, UniProt D4Z2G1); assay: as above; type: biochemical, Sphingomonas paucimobilis UT26; conditions: racemic substrate; n.d. = not detected (activity < 0.2 nM · s^−1 · mg^−1 of enzyme)
[3] = target: haloalkane dehalogenase DbjA (Bradyrhizobium diazoefficiens, UniProt P59337); assay: as above; type: biochemical, Bradyrhizobium japonicum USDA110; conditions: racemic substrate; n.d. = not detected (activity < 0.2 nM · s^−1 · mg^−1 of enzyme)
[4] = test system: haloalkane dehalogenases DmbA, DmbB, DmbC, DhlA, DhaA, DrbA, LinB, DhmA, DbjA and DbeA; conditions: with DmbA, reaction directly on the chiral carbon
[5] = target: haloalkane dehalogenase DhlA (Xanthobacter autotrophicus, UniProt P22643); assay: Chiral recognition (E-value), hydrolytic dehalogenation of racemic substrates; type: biochemical, Xanthobacter autotrophicus GJ10; conditions: racemic substrate; n.d. = not detected (activity < 0.2 nM · s^−1 · mg^−1 of enzyme)

Row | Compound | E-values DhaA [1] | E-values LinB [2] | E-values DbjA [3] | enantioselectivity [4] | E-values DhlA [5]
1 | CC(=O)C(C)Br (racemic) | >200 | 3 | >200 | excellent enantioselectivity | 
2 | epibromohydrine | 1.2 | 1.1 | 1.9 |  | 1.4
